Measured values published in ChEMBL document CHEMBL3091339 (J Med Chem, 2013).

Assays:
Mus musculus = species on record: Mus musculus; assay: animal or person; settings: CF-1, Hindlimb, po, 1 h
Rattus norvegicus [1] = species on record: Rattus norvegicus; assay: animal or person; settings: Sprague-Dawley, Hindlimb, po, 4 h
Rattus norvegicus [2] = species on record: Rattus norvegicus; assay: animal or person; settings: Sprague-Dawley, Hippocampus, ip
[3] = Metabolic stability in rat liver microsomes assessed as compound remaining after 60 mins; type: ADME; settings: read-out: Stability

Structure (SMILES) | ED50 (Mus musculus) [mg/kg] | other results
NS(=O)(=O)NCC1Oc2ccccc2O1 | 131 | –
NS(=O)(=O)NC[C@@H]1COc2cc(Cl)ccc2O1 | – | ED50 (Rattus norvegicus [1]): 50 mg/kg
NS(=O)(=O)NC[C@H]1COc2ccc(Cl)cc2O1 | 104 | –
NS(=O)(=O)NC[C@H]1COc2c(F)cccc2O1 | 230 | –
NS(=O)(=O)NC[C@H]1COc2cc(F)ccc2O1 | 161 | –
NS(=O)(=O)NC[C@H]1COc2cc(Cl)c(Cl)cc2O1 | 296 | –
NS(=O)(=O)NCC1COc2ccccc2OC1 | 267 | –
NS(=O)(=O)NC[C@H]1COc2cc(Cl)ccc2O1 [JNJ-26489112] | – | ED50 (Rattus norvegicus [2]): 68.5 mg/kg; remaining at 1 h [3]: 92%; ED50 (Rattus norvegicus [1]): 43 mg/kg
